Source: patent US20240287081A1, “PERFLUOROALKANE SUBSTITUTED PYRAZOLO[3,4-D]PYRIMIDIN AND PYRROLO[2,3-D]PYRIMIDIN COMPOUNDS AND USES THEREOF” (ICAHN SCHOOL OF MEDICINE AT MOUNT SINAI, priority 2021, published 2024)

Target: T1, wild-type RET kinase domain (Homo sapiens, UniProt P07949)
T1 construct: determined against recombinant-human, wild-type RET kinase domain; phage display fusion (kinase expressed on phage); purchased DiscoverX (Fremont, CA); host or cells: phage
T1 sequence (P07949 724-1016 limits assumed): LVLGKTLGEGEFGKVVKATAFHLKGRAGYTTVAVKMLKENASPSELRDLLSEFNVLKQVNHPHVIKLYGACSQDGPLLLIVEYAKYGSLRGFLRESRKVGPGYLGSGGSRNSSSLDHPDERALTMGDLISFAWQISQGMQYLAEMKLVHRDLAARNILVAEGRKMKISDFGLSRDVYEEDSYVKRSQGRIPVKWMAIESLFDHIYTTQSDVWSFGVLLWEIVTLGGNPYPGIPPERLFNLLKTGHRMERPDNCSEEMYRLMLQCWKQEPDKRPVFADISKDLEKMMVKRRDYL
Assay: Wild-type RET Kd, bead based competition assay (KINOMEscan, DiscoverX)
Assay type: binding
Conditions: recombinant human wild-type RET kinase domain, average of two replicates; read-out: Kd towards wild-type RET
Method: Wild-type RET Kd values were determined by DiscoverX (Fremont, CA) using a bead based competition assay (KINOMEscan). In brief, kinases are expressed on phage and immobilized on beads via active site-directed ligands. Test compounds are premixed with kinases and assayed for the ability to compete for immobilized ligands. Binding constants are calculated with a standard dose-response curve and the Hill equation, with Hill slope set to −1. […] Kd values are the average of two experimental replicates.
To assess if the differences in activity between R^F- and R^H-analogs were related to alterations in target engagement, representative analogs for binding on wild-type RET were compared. For this KD values of compounds 40 (para-C2F5) and 50 (para-C2H5) were determined against recombinant-human, wild-type RET kinase domain. Assays were completed using the bead-based competition format developed by Ambit/DiscoverX and binding curves were plotted relative to regorafenib (2; FIG. 8A).

Kd: 6.4 nM
SMILES: CNC(=O)c1cc(Oc2ccc(NC(=O)Nc3ccc(Cl)c(C(F)(F)F)c3)c(F)c2)ccn1 [regorafenib, reference compound]
